Measurements from ChEMBL document CHEMBL5104167, “Development and profiling of mGlu7 NAMs with a range of saturable inhibition of agonist responses in vitro” (Bioorg Med Chem Lett, 2022).

By UniProt entry, the sequences of proteins in these tests, tags left out.
UniProt P35400, whole entry: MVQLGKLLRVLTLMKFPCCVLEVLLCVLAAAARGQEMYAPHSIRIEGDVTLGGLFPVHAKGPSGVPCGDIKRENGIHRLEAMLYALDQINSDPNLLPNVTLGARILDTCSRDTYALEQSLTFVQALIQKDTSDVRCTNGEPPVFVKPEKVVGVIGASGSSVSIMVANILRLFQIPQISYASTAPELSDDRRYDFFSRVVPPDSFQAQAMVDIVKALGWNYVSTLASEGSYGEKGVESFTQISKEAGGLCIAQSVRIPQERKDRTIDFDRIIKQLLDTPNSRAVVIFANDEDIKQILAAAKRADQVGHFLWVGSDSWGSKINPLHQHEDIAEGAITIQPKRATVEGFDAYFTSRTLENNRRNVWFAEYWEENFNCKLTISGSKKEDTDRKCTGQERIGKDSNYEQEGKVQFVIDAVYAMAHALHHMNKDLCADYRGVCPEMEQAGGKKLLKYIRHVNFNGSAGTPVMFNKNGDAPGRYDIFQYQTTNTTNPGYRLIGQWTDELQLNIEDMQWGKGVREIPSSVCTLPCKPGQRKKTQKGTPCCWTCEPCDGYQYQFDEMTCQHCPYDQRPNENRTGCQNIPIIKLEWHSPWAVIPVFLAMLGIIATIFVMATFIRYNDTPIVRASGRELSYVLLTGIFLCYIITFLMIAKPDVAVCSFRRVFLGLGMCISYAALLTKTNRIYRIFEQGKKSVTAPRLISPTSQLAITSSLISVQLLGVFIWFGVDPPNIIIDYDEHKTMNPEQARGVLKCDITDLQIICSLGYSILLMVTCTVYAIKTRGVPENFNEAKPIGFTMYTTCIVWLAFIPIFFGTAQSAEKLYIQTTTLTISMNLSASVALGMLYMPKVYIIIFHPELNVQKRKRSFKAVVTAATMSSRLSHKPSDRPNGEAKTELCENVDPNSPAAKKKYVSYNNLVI
UniProt Q14831, whole entry: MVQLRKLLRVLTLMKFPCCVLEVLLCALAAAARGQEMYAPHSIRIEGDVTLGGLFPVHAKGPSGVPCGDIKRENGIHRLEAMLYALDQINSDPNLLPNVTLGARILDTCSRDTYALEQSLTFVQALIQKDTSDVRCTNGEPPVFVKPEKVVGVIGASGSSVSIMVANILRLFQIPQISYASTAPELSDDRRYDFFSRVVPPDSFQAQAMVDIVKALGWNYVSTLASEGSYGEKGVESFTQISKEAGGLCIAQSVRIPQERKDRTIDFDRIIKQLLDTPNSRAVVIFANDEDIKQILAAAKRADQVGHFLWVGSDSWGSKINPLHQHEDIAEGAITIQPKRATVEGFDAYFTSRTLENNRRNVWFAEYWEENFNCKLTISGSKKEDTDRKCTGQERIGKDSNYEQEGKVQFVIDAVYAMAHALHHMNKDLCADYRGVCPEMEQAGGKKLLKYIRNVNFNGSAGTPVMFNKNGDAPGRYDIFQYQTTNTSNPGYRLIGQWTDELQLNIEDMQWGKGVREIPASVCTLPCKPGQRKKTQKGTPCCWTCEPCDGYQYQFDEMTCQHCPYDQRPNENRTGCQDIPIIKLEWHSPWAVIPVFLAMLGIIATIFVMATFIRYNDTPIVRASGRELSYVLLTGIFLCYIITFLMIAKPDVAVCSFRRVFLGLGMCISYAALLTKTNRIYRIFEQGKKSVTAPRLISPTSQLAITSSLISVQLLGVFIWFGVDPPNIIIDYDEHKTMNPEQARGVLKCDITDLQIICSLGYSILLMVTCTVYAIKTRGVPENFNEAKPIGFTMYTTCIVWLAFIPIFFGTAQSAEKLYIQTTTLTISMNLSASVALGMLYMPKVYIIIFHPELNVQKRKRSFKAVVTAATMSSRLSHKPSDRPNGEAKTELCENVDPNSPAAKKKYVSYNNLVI

molecular target: Metabotropic glutamate receptor 7 (Rattus norvegicus, UniProt P35400); test: Negative allosteric modulation of rat mGlu7 in HEK cells expressing Galpha15 assessed as inhibition of L-AP4-induced response measured by calcium mobilization assay; format: functional, cell-based; settings: read-out: IC50

SMILES | IC50
COc1cc(C(=O)Nc2cc(OC(F)(F)F)ccc2-n2cncn2)ccc1OC(C)C | 890 nM
CCOc1ccc(C(=O)Nc2cc(OC(F)(F)F)ccc2-n2cncn2)cc1OC | 550 nM
COc1ccc(-c2nnc(-c3cc(OC(F)(F)F)ccc3-n3cccn3)o2)cc1OC | 1800 nM
COc1cc(F)c(-c2noc(-c3cc(Cl)ccc3-n3cncn3)n2)c(F)c1OC | 3600 nM
COc1ccc(-c2coc(-c3cc(Cl)ccc3-n3cncn3)n2)cc1OC | 1900 nM
COc1cc(-c2noc(-c3cc(Cl)ccc3-n3cncn3)n2)cc(F)c1OC | 2700 nM
COc1ccc(-c2noc(-c3cc(Cl)ccc3-n3cncn3)n2)cc1OC | 1100 nM
COc1ccc(-c2nnc(-c3cc(Cl)ccc3-c3cn[nH]c3)o2)cc1OC | 1500 nM
COc1ccc(-c2nnc(-c3cc(Cl)ccc3-c3ccnn3C)o2)cc1OC | 1600 nM

same assay, conditions: read-out: pIC50 (converted)

SMILES | IC50
CCCOc1ccc(C(=O)Nc2cc(OC(F)(F)F)ccc2-n2cncn2)cc1OC | 794 nM
COc1ccc(C(=O)Nc2cc(OC(F)(F)F)ccc2-n2cncn2)cc1OC | 794 nM
COc1ccc(-c2nnc(-c3cc(OC(F)(F)F)ccc3-c3ccnn3C)o2)cc1OC | 1260 nM

molecular target: Metabotropic glutamate receptor 7 (Homo sapiens, UniProt Q14831); settings: not given

SMILES | IC50
COc1cc(C(=O)Nc2cc(OC(F)(F)F)ccc2-n2cncn2)ccc1OC(C)C | 5200 nM
